{
  "sequences": {"note": "The chains behind the UniProt entries cited, without tags or fusion partners.", "UniProt P42336, whole entry": "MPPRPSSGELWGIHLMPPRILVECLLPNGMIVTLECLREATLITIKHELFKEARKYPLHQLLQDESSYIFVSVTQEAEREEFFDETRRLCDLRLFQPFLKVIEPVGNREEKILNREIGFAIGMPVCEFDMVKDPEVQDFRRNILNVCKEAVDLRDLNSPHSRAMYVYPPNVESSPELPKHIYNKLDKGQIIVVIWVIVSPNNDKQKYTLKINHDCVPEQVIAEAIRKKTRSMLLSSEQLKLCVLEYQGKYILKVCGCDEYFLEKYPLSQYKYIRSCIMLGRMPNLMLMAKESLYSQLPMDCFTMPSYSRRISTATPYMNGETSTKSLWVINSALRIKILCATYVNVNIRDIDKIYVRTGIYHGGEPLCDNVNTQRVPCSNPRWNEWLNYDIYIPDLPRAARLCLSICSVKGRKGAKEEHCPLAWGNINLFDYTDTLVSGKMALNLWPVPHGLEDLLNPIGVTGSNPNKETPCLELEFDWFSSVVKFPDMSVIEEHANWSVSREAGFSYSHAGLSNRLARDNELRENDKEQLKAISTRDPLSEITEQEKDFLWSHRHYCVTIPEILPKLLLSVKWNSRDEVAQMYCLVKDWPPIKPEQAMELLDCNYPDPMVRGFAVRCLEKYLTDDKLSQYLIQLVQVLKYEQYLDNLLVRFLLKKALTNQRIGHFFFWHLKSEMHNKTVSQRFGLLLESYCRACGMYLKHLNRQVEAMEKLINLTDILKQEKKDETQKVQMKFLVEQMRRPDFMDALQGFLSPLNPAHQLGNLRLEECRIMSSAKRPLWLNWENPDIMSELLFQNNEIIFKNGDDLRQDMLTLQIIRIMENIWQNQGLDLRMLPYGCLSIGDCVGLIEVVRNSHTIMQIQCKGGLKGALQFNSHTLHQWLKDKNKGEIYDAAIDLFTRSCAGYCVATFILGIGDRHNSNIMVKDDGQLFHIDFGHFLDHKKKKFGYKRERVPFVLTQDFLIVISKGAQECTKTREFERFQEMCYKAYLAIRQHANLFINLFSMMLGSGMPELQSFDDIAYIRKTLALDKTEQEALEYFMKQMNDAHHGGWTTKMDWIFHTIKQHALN", "UniProt P27986, whole entry partner": "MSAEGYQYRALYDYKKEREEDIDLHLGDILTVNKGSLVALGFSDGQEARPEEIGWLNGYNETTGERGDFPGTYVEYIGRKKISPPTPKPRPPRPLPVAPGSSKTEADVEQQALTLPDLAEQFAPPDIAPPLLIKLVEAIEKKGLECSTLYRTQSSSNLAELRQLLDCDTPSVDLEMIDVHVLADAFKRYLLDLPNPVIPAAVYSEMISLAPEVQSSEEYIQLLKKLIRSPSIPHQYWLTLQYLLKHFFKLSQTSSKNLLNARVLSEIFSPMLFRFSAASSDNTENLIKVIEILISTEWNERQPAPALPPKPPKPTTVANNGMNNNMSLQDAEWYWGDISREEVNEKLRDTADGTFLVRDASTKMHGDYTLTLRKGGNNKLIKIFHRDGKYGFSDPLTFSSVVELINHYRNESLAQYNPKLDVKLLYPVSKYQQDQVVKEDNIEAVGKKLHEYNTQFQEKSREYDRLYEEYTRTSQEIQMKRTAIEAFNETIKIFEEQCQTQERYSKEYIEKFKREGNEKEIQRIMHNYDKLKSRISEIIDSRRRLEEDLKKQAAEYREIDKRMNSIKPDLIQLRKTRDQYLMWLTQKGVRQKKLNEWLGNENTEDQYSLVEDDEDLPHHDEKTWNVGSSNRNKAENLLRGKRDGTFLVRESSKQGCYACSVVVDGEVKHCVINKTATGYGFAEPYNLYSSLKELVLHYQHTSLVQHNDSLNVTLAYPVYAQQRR"},
  "source": "patent US20240217960A1",
  "about": "“TRIAZINE DERIVATIVE AS COVALENT INHIBITORS OF PI3K” (UNIVERSITÄT BASEL, priority 2021, published 2024)",
  "key": {"[1]": {"biological_target": "p110α (PI3Kα) (Homo sapiens, UniProt P42336)", "assay": "Determination of kinetic constants (kinact, Ki) for p110α by LanthaScreen Technology", "conditions": "read-out: Ki PI3Kα; dissociation constant of the first reversible binding; global fitting with KinTek"}, "[2]": {"test_system": "pSer473 of PKB/Akt in SKOV3 cells", "assay": "In Cell Western cellular PI3K signaling and IC50 determination", "format": "cell-based", "conditions": "read-out: IC50 pPKB (S473) SKOV3, 2 or 3 independent measurements", "protocol": "Protein phosphorylation was detected as follows: pSer473 of PKB/Akt with rabbit polyclonal antibody from Cell Signaling Technology (CST) (#4058) by In-Cell Western assays, where 1.2×10^4 SKOV3 cells/well in 96-well plates were plated (Cell Carrier, PerkinElmer) for 24 hours (37° C., 5% CO2), as described in Ref. ^25."}},
  "data": [
    {"smiles": "CCC(=O)N1CCC(C(=O)N(C)CC(=O)N2CCN(c3nc(-c4cnc(N)nc4C(F)F)nc(N4CCOCC4)n3)CC2)CC1", "values": [
      {"measurement": "Ki", "setting": "[1]", "result": 6.16, "unit": "nM"},
      {"measurement": "IC50", "setting": "[2]", "result": 227, "unit": "nM"}
    ]}
  ]
}
